Reference: patent US20240277861A1, “ANTI-HEPATITIS B VIRUS AGENT TARGETING HOST FACTOR LIPG” (PUROTECH BIO, INC., priority 2021, published 2024)

Biological target: T1, biotinylated full-length LIPG (Homo sapiens, UniProt Q9Y5X9)
T1 construct: A pull-down assay was performed on the full-length form of LIPG (500 amino acids); made in house
T1 sequence (Q9Y5X9 21-500): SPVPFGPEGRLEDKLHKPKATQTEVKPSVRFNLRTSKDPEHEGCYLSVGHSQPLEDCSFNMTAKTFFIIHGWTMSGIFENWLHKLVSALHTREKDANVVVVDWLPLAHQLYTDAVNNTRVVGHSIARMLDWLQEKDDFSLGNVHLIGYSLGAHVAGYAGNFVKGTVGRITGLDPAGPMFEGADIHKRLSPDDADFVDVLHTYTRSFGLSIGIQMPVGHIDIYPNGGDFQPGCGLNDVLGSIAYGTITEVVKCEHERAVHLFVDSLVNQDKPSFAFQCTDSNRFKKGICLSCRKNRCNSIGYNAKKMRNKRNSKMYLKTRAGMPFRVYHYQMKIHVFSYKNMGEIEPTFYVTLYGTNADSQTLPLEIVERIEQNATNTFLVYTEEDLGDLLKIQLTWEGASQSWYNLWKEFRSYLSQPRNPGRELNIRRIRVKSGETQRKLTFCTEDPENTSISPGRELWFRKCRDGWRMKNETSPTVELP
Test: Pull-down assay of N4BP1 against full-length LIPG
Format: binding
Details: culture supernatant containing expressed N4BP1
Experimental: Resin (Streptavidin MagneSphere Paramagnetic Particles, Promega) was washed using the MagneSphere Technology Magnetic Separation Stand (twelve-position). The resin in a volume of 40 μl was added to each 1.5 ml tube, and after removal of the solution, washed three times with 1 ml of PBS. The resin was transferred to new tubes and mixed with the biotinylated full-length LIPG or with an equal volume of PBS as a no bait control, and the resulting mixtures were agitated at 4° C. for 1 hour by rotation on a mini-disk rotor (BIO CRAFT) to allow binding. After removal of the solution, the resin was washed three times with 1 ml of TBST (0.05% Tween 20). The resin was transferred to new tubes, blocked with 1 ml of ELISA BSA buffer (TBS. 0.05%. Tween 20, 10% BSA, Nacalai Tesque, Inc.) at 4° C. for 1 hour, and then washed three times with 1 ml of ELISA BSA buffer. The resin was transferred to new tubes, and 1000 μl of the culture supernatant containing expressed N4BP1 was mixed with 40 μl of the resin treated with the biotinylated full-length LIPG or without the bait, and the resulting mixtures were agitated at 4° C. for 1 hour and 30 minutes by rotation on a mini-disk rotor (BIO CRAFT) to allow binding. After removal of the solution, the resin was washed three times with 500 μl of TBST (Tween 20, 0.10%), and the recovered resin was used for Western blotting. […]

**Q.** With “N4BP1: full-length N4BP1 (NEDD4-binding protein 1), SEQ ID NO: 82 [Peptide N4BP1]” as the substance, how does the “binding to LIPG in pull-down assay” value read?
**A.** The value was “binds to LIPG”.
